The text below walks through data of patent publication US4740502A, “Semisynthetic erythromycin antibiotics” (Abbott Laboratories, priority 1986, dated 1988).

In brackets after ≈: the same amount, converted by molar mass.

Experiment [1] relates to Staph. aureus 45. As to the kind of experiment: microbe, parasite or virus in culture. The following applies: Staphylococcus aureus, 45, 22 h.
Experiment [2] relates to Staph. aureus 45 RAR 2. Description: microbe, parasite or virus in culture. The following applies: Staphylococcus aureus, 45RAR2, 22 h.

Regarding `CC[C@H]1OC(=O)[C@H](C)[C@@H](O[C@H]2C[C@@](C)(OC)[C@@H](OC(N)=O)[C@H](C)O2)[C@H](C)[C@@H](O[C@@H]2O[C@H](C)C[C@H](N(C)C)[C@H]2O)[C@](C)(OC)C[C@@H](C)C(=O)[C@H](C)[C@@H](O)[C@]1(C)O` [Example 1, 6-O-methyl-erythromycin A-4"-carbamate], the MIC in experiment [1] worked out at 0.02 µg/mL (≈ 0.0253 µM); in experiment [2], 0.05 µg/mL (≈ 0.0632 µM).
